From patent publication US20250163068A1, “COMPOUNDS AND THEIR METHODS OF USE” (Praxis Precision Medicines, Inc., priority 2016, published 2025) come the findings set out here.

The chains behind the UniProt entries cited, without tags or fusion partners.
UniProt Q9UQD0, whole entry: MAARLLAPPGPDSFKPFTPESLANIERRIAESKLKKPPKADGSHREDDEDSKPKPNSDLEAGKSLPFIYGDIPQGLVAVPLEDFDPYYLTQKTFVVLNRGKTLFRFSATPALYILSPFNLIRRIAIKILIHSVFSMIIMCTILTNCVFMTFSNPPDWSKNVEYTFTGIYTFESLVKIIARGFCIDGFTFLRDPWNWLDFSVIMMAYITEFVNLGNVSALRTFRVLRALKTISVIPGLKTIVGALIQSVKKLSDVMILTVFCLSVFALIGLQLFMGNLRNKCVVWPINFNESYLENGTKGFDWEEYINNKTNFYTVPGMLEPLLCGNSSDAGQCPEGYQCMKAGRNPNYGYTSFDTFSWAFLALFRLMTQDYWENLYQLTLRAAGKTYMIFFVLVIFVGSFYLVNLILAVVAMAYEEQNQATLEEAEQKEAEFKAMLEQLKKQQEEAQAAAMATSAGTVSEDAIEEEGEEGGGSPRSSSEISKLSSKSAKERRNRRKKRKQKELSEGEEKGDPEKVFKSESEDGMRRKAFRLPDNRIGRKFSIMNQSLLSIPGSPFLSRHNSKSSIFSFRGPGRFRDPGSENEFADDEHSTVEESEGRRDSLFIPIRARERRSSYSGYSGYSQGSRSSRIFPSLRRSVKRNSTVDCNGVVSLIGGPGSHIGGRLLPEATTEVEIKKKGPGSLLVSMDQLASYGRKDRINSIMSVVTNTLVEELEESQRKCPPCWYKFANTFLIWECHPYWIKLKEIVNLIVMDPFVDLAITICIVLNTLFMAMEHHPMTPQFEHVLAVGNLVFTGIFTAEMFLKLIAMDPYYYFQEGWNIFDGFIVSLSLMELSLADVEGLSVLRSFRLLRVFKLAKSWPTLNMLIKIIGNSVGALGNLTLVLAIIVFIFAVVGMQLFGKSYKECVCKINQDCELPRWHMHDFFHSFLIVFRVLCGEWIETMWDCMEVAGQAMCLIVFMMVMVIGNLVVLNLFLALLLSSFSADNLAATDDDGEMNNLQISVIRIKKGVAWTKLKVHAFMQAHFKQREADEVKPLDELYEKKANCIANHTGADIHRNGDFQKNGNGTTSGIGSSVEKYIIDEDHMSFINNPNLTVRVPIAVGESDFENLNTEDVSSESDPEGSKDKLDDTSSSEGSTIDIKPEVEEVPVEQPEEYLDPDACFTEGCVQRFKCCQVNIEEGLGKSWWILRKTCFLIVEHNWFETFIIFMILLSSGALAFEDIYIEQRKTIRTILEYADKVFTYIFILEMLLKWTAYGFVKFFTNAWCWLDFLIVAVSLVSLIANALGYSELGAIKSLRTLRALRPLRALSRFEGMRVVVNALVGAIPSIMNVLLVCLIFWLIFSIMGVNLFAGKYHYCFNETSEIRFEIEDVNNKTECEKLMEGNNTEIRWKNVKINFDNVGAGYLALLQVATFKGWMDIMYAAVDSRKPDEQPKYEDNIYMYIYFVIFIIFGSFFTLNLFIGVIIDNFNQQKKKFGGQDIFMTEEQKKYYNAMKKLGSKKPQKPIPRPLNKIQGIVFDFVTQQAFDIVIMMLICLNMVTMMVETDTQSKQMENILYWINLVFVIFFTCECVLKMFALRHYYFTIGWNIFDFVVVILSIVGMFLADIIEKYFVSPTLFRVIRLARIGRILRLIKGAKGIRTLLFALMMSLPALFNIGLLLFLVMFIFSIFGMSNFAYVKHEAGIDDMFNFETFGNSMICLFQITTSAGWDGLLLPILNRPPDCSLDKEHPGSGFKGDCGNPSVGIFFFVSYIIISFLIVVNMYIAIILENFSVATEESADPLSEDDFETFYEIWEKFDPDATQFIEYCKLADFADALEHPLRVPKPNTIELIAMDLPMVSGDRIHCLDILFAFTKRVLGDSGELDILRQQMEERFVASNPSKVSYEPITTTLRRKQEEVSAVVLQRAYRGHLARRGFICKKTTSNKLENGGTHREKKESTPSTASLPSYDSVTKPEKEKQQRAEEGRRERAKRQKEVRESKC

A value given as a limit tells only on which side of the number the result lay.

The target in the test is human Nav1.6 (hNav1.6) (Homo sapiens (Human), UniProt Q9UQD0). The test is described as follows: Inhibition of late sodium current (INaL) at hNav1.6, PatchXpress electrophysiology. The test is classed as cell-based. The conditions noted are these: HEK293, read-out: INaL v1.6 (1 μM, % Inhibition). On the procedure: Functional characterization of exemplary compounds to modulate INaL expressed by the Nav1.6 voltage-gated sodium channel was accomplished using the PatchXpress™ high throughput electrophysiology platform (Molecular Devices, Sunnyvale, CA). HEK-293 cells expressing recombinant, human Nav1.6 (hNav1.6)were grown in DMEM/high-glucose Dulbecco's modified, 10% FBS, 2 mM sodium pyruvate, 10 mM HEPES and 400 μg/mL G418. Cells were grown to 50%-80% confluency prior to harvesting. […] The onboard liquid handling facility of the PatchXpress was used for dispensing cells and applying test compounds. Nav late currents were evoked by the application of 300 nM ATX-II. […] INaL amplitude and stability were determined by analyzing the mean current amplitude over the final 20 ms of the test pulse. […] Percent steady-state inhibition of INaL was calculated as: [(INaL_compound)/(INaL_control)]*100, where INaL_compound and INaL_control represent INaL recorded in the presence or absence of compound, respectively.

Consider `FC(F)(F)Oc1ccc(-c2ccc3nnc(CC4COC4)n3n2)cc1` [Compound 20], for which the inhibition at 1 µM is less than 30%.

A word on the inhibition: it is the drop in the measured response relative to a control, in per cent.
